Test results: article PMC3266667 (Frontiers in Pharmacology, 2012)
Read-outs that look alike come from different tables or passages of the source.

The chains behind the UniProt entries cited, without tags or fusion partners. Where a name states a change or a piece, a line headed by the entry shows the natural chain unless it says otherwise.
UniProt Q12809: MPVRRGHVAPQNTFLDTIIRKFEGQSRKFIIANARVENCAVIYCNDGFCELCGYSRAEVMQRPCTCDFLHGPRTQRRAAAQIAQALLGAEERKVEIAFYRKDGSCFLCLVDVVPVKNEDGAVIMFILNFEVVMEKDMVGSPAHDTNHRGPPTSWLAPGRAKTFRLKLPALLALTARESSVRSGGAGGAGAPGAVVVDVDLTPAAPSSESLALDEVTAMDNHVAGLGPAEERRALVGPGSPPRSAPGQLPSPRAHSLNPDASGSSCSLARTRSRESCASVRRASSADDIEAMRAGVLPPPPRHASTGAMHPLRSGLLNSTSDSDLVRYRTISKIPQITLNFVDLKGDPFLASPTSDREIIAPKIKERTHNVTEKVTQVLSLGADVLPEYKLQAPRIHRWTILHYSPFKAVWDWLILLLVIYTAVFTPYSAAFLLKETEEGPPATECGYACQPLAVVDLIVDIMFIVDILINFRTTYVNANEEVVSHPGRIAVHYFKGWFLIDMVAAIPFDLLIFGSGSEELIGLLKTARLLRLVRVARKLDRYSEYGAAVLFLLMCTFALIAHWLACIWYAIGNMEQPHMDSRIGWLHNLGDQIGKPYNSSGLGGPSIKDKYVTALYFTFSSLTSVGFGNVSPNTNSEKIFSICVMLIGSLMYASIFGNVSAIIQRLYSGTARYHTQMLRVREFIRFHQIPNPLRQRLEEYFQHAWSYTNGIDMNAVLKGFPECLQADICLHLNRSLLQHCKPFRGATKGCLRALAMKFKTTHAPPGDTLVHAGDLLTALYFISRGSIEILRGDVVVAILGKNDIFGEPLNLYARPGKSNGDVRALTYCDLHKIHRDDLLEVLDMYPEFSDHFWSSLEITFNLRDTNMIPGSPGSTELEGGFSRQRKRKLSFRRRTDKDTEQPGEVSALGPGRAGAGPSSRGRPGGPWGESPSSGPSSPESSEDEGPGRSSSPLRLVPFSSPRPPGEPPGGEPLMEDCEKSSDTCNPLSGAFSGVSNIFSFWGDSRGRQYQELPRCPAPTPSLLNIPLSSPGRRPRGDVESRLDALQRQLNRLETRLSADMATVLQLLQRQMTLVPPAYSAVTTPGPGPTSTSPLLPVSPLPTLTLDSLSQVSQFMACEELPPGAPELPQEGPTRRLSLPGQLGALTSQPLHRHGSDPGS

Key:
[1] = target: T1, hERG K+ channels (Homo sapiens, UniProt Q12809); test: cell-based
[2] = target: T1, hERG K+ channels; test: cell-based; remark: listed apart in the source

## CC(C)COCC(CN(Cc1ccccc1)c1ccccc1)N1CCCC1 (centres unmarked) [Bepridil]
[1]
  IC50: 0.065 ± 0.012 µM
[2]
  IC50: 0.27 µM
